These results are taken from patent US20090227607A1, “DEAZAPURINES USEFUL AS INHIBITORS OF JANUS KINASES” (priority 2006, published 2009).

Sequences of proteins named here, by UniProt entry; tags and fusion partners are left off.
UniProt P52333, whole entry: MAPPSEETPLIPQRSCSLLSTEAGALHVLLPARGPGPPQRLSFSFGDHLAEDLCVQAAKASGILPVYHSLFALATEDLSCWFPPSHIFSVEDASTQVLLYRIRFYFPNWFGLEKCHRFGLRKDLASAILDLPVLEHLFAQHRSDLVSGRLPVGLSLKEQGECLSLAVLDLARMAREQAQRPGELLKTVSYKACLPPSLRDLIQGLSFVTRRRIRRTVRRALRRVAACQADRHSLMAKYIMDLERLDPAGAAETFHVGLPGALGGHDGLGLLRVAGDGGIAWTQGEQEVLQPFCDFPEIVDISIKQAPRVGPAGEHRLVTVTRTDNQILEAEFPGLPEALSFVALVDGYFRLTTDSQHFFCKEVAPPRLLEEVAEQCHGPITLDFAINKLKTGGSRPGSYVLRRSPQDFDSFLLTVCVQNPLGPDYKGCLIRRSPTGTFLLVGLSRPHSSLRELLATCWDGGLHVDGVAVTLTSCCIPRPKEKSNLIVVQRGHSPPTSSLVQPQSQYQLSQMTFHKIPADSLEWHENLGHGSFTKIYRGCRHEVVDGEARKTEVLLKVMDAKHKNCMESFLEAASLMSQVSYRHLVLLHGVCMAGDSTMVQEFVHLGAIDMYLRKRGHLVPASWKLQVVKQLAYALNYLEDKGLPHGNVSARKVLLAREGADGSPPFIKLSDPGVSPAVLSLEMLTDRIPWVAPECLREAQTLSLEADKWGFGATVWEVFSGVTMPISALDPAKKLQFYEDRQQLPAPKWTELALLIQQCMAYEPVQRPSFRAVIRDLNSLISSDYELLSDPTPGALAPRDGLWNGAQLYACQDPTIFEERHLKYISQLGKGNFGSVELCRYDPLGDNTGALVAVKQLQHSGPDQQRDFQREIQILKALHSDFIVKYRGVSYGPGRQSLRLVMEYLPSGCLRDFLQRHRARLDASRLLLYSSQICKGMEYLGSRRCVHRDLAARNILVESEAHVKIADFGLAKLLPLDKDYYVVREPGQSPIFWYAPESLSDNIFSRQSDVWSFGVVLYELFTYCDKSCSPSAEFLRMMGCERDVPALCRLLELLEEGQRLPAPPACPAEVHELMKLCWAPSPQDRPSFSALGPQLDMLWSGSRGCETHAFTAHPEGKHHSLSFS
UniProt O60674, whole entry: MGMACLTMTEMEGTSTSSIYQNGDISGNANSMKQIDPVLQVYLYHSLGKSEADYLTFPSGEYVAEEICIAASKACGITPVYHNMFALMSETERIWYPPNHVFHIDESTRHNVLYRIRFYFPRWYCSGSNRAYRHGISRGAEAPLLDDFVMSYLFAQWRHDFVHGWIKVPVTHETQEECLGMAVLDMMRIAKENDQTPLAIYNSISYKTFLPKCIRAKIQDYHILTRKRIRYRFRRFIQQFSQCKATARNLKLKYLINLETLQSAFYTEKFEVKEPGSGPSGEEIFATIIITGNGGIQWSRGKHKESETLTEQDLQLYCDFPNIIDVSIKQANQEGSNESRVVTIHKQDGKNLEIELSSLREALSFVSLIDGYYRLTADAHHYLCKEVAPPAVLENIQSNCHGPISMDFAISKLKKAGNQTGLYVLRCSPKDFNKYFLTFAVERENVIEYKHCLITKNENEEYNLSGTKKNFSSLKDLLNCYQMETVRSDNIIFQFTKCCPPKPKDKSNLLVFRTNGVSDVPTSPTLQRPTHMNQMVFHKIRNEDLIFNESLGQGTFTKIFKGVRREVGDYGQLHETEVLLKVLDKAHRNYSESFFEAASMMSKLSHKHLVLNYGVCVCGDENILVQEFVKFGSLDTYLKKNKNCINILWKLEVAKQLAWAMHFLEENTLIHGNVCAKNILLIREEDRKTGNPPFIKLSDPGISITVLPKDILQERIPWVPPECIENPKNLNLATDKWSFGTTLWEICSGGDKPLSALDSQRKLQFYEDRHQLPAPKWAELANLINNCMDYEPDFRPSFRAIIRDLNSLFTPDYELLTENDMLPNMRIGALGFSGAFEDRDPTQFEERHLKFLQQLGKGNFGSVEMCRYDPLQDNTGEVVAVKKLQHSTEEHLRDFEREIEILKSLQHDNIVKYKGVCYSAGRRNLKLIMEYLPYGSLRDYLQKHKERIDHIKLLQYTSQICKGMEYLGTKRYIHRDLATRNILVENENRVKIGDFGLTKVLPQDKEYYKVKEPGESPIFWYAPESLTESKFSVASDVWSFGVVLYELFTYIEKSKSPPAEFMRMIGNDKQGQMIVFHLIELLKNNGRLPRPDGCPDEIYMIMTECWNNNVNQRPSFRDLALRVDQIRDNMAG

A value given as a limit tells only on which side of the number the result lay.

Experiment [1] addresses JAK3 (Homo sapiens, UniProt P52333). Nature of the experiment: JAK3 Inhibition Assay. Conditions: read-out: JAK3 enzyme inhibition data (Ki); 1 μM poly(Glu)4Tyr, 5 μM ATP, 1 nM JAK3, 25° C.
Experiment [2] concerns the target JAK-2 enzyme (Homo sapiens, UniProt O60674). As to the kind of experiment: JAK2 Inhibition Assay. Conditions: read-out: JAK2 enzyme inhibition data (Ki); 15 μM poly(Glu)4Tyr, 12 μM ATP, 25° C.

Turning to `COC(=O)C1CCCCC1C(=O)Nc1nc(-c2ccnc3[nH]ccc23)cs1` (single isomer, unassigned), the inhibitory constant (Ki) is 100 to 500 nM in experiment [1] and under 100 nM in experiment [2].

Usually Ki stands for a measure of affinity in units of concentration, obtained from inhibition or displacement.
